Assay results as given in paper PMC3982398 (Biochemical pharmacology, 2009).

Substrate: COc1ccc(Cl)cc1C(=O)NCCc1ccc(S(=O)(=O)NC(=O)NC2CCCCC2)cc1
Experiment: cells, lysate or membranes named
Assay type: in vitro ADME, human
Conditions: apparent Km, 37.0 °C

B1: cDNA-expressed CYP 1A1 (Homo sapiens) (protein)
chain: MLFPISMSATEFLLASVIFCLVFWVIRASRPQVPKGLKNPPGPWGWPLIGHMLTLGKNPHLALSRMSQQYGDVLQIRIGSTPVVVLSGLDTIRQALVRQGDDFKGRPDLYTFTLISNGQSMSFSPDSGPVWAARRRLAQNGLKSFSIASDPASSTSCYLEEHVSKEAEVLISTLQELMAGPGHFNPYRYVVVSVTNVICAICFGRRYDHNHQELLSLVNLNNNFGEVVGSGNPADFIPILRYLPNPSLNAFKDLNEKFYSFMQKMVKEHYKTFEKGHIRDITDSLIEHCQEKQLDENANVQLSDEKIINIVLDLFGAGFDTVTTAISWSLMYLVMNPRVQRKIQEELDTVIGRSRRPRLSDRSHLPYMEAFILETFRHSSFVPFTIPHSTTRDTSLKGFYIPKGRCVFVNQWQINHDQKLWVNPSEFLPERFLTPDGAIDKVLSEKVIIFGMGKRKCIGETIARWEVFLFLAILLQRVEFSVPLGVKVDMTPIYGLTMKHACCEHFQMQLRS
other: CYP 1A1 supersomes
  Km: 40.2 ± 10 µM
  kcat: 0.0333 ± 0.00333 s⁻¹

B2: cDNA-expressed CYP 2C19 (Homo sapiens) (protein)
chain: MDPFVVLVLCLSCLLLLSIWRQSSGRGKLPPGPTPLPVIGNILQIDIKDVSKSLTNLSKIYGPVFTLYFGLERMVVLHGYEVVKEALIDLGEEFSGRGHFPLAERANRGFGIVFSNGKRWKEIRRFSLMTLRNFGMGKRSIEDRVQEEARCLVEELRKTKASPCDPTFILGCAPCNVICSIIFQKRFDYKDQQFLNLMEKLNENIRIVSTPWIQICNNFPTIIDYFPGTHNKLLKNLAFMESDILEKVKEHQESMDINNPRDFIDCFLIKMEKEKQNQQSEFTIENLVITAADLLGAGTETTSTTLRYALLLLLKHPEVTAKVQEEIERVIGRNRSPCMQDRGHMPYTDAVVHEVQRYIDLIPTSLPHAVTCDVKFRNYLIPKGTTILTSLTSVLHDNKEFPNPEMFDPRHFLDEGGNFKKSNYFMPFSAGKRICVGEGLARMELFLFLTFILQNFNLKSLIDPKDLDTTPVVNGFASVPPFYQLCFIPV
other: CYP 2C19 supersomes
  Km: 15.3 ± 6.4 µM
  kcat: 0.0767 ± 0.0117 s⁻¹

B3: cDNA-expressed CYP19 (Homo sapiens) (protein)
chain: MVLEMLNPIHYNITSIVPEAMPAATMPVLLLTGLFLLVWNYEGTSSIPGPGYCMGIGPLISHGRFLWMGIGSACNYYNRVYGEFMRVWISGEETLIISKSSSMFHIMKHNHYSSRFGSKLGLQCIGMHEKGIIFNNNPELWKTTRPFFMKALSGPGLVRMVTVCAESLKTHLDRLEEVTNESGYVDVLTLLRRVMLDTSNTLFLRIPLDESAIVVKIQGYFDAWQALLIKPDIFFKISWLYKKYEKSVKDLKDAIEVLIAEKRRRISTEEKLEECMDFATELILAEKRGDLTRENVNQCILEMLIAAPDTMSVSLFFMLFLIAKHPNVEEAIIKEIQTVIGERDIKIDDIQKLKVMENFIYESMRYQPVVDLVMRKALEDDVIDGYPVKKGTNIILNIGRMHRLEFFPKPNEFTLENFAKNVPYRYFQPFGFGPRGCAGKYIAMVMMKAILVTLLRRFHVKTLQGQCVESIQKIHDLSLHPDETKNMLEMIFTPRNSDRCLEH
other: CYP19 supersomes
  Km: 16.5 ± 3.3 µM
  kcat: 0.00667 ± 0.0005 s⁻¹
